Only a part is listed here, and it is no random draw. Calls of active or inactive are those of the source. Calls follow the shape of the dose curve; as a rule, active = well fitted activation curve with a large enough effect; inconclusive = small, poorly fitted or top-dose-only effect; inactive = no such curve, though single readings can be large or run the other way.
target: Rap guanine nucleotide exchange factor 4 (Homo sapiens) (UniProt Q8WZA2); experiment: qHTS for Agonist of cAMP-regulated guanine nucleotide exchange factor 4 (EPAC2): primary screen; settings: biochemical qHTS, 100% = 6.5 mM cAMP response; at 154 µM (top of the series) unless noted; also: nearly all actives have a fitted effect of over 50% in size
Description: In multi-cellular eukaryotic organisms, the effects of cAMP are transduced by two ubiquitously-expressed intracellular cAMP receptors, the classic protein kinase A/cAMP-dependent protein kinase (PKA/cAPK) and the more recently discovered exchange protein directly activated by cAMP/cAMP-regulated guanine nucleotide exchange factor (EPAC/cAMP-GEF). Both PKA and EPAC are ubiquitously expressed in all tissues, and an increase in intracellular cAMP levels will lead to the activation of both PKA and EPAC. Therefore, careful dissections of the individual role and relative contribution of EPAC and PKA within the overall cAMP signaling in various model systems are critical for further elucidating the mechanism of cAMP signaling. To date no EPAC-specific antagonists and agonist, as well as isoform-specific agonists have been reported, and developing EPAC-specific pharmacological probes to determine the physiological functions that EPAC play in the overall cAMP-mediated signaling remains a major challenge within the research field. Furthermore, identified regulators of EPAC may lead to new mechanism-based therapeutic strategies specifically targeting the EPAC / cAMP-signaling components as EPAC has been implicated to play important roles in major human pathological conditions such as diabetes, heart disease, and cancer.
This qHTS will be used to screen the Molecular Libraries Small Molecule Repository (MLSMR) as a concentration-titration series using the NCGC unique quantitative screening (qHTS) platform to find activators for EPAC2. In addition, this assay will also be used as a counterscreen for the EPAC1 qHTS. This fluorescent based assay is developed and validated for EPAC2 that measures exchange using EPAC effector Rap1 complex with BODIPY-GDP, a GDP analog with a tethered fluorophores. Activators are identified by monitoring the change in fluorescence signal as the exchanged free BODIPY-GDP has a reduced fluorescence compared to Rap1-bound BODIPY-GDP. […] in signal (activation) is the desired outcome for the EPAC2 agonist while no activity in this assay is desired for the EPAC1 agonist counterscreen.
[1] de Rooij, J., Zwartkruis, F. J., Verheijen, M. H., Cool, R. H., Nijman, S. M., Wittinghofer, A., and Bos, J.L. (1998) Nature 396, 474-477
[2] Kawasaki, H., Springett, G. M., Mochizuki, N., Toki, S., Nakaya, M., Matsuda, M., Housman, D. E., and Graybiel, A. M. (1998) Science 282, 2275-2279
NIH Chemical Genomics Center [NCGC]
NIH Molecular Libraries Probe Centers Network [MLPCN]
Assay Submitter (PI): Xiaodong Cheng, The University of Texas, Medical Branch
Briefly, three uL of reagents (100 nM EPAC2, 250 nM RAP1B-BODIPY-GDP, 50 uM GDP) were dispensed into a 1536-well Greiner black solid-bottom medium binding assay plate. Controls and test compounds (23 nL) were transferred to the plate via a Kalypsys pin tool equipped with a 1536-pin array. The plates were centrifuged at 1,000 rpm for 15 seconds followed by 5 minute incubation at room temperature. The assay plates were read at 5 minute intervals for 30 minutes in the ViewLux plate reader using 480nm excitation and 540nm emission filters. The results were normalized to the agonist positive control of 6.5 mM cAMP.

The chains behind the UniProt entries cited, without tags or fusion partners.
UniProt Q8WZA2, whole entry: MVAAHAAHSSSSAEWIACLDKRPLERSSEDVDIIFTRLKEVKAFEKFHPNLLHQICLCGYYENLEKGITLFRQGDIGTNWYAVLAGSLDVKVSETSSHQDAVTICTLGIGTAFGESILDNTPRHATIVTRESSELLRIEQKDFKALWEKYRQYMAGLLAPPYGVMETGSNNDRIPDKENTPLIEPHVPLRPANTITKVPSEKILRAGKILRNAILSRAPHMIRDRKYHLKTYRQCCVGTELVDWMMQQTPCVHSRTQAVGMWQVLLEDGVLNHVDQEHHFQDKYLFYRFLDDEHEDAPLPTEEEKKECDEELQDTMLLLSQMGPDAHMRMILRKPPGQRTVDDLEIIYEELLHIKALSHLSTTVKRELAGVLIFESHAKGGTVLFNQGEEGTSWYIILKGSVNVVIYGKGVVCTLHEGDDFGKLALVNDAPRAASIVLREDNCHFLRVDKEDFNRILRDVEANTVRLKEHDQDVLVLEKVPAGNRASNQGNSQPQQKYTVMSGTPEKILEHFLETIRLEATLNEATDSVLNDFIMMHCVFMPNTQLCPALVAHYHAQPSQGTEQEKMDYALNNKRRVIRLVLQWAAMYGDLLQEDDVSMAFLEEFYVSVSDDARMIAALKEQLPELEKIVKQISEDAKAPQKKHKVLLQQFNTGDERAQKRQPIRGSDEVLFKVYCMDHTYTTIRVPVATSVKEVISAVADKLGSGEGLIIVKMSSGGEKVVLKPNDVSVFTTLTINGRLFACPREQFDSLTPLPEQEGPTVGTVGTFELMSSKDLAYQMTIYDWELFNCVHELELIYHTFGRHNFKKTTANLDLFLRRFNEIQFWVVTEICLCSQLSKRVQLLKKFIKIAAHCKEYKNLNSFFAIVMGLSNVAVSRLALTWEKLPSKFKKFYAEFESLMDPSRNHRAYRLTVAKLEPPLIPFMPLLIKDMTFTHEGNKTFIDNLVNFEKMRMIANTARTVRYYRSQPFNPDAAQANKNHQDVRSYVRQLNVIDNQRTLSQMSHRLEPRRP

| Structure (SMILES) | activation |
| --- | --- |
| COc1ccccc1OP(C)(=O)Nc1ccc(Br)cc1 (centres undefined) | inactive: -3.45% |
| COc1ccc(OP(C)(=O)Nc2ccccn2)cc1 (centres undefined) | inactive: 6.94% |
| CN(C)CCOC(=O)C(O)(c1ccccc1)C1CCCC1 (centres undefined) | inactive: 4.8% |
| Cc1c(NP(C)(=O)Oc2ccc(C(C)C)cc2)c(=O)n(-c2ccccc2)n1C (centres undefined) | inactive: 0.527% |
| O=[N+]([O-])c1cc([N+](=O)[O-])c(Nc2ccccn2)c([N+](=O)[O-])c1 | inactive: -2.09% |
| CP(=O)(Nc1ccccn1)Oc1ccccc1 (centres undefined) | inactive: 0.921% |
| COc1ccccc1OP(C)(=O)Nc1ccc(C)cc1C (centres undefined) | inactive: 3.26% |
| CCc1ccc(OP(C)(=O)O)cc1 | inactive: -84.9% [at 15.6 µM] |
| Cc1cc(C)cc(OP(C)(=O)Nc2cccc(C(F)(F)F)c2)c1 (centres undefined) | inactive: 1.46% |
| COc1ccccc1OP(C)(=O)Nc1ccc(C)c(C)c1 (centres undefined) | inactive: 26.6% |
| COc1ccc(OP(C)(=O)Nc2ccccc2Br)cc1 (centres undefined) | inactive: -1.96% |
| CCCCCCCCCCCCCCCC1C[N+](C)(C)CCOP(C)(=O)O1 (centres undefined) | inactive: 2.35% |
| CP(=O)(Nc1ccc(Cl)cc1Cl)Oc1ccccc1 (centres undefined) | inactive: -0.325% |
| CP(=O)(OCCOc1ccccc1)OCCOc1ccccc1 | inactive: 7.38% |
| Nc1ccc2c(ccc3cccnc32)n1.O=[N+]([O-])c1cc([N+](=O)[O-])c(O)c([N+](=O)[O-])c1 | inactive: 1.57% |
| CCOC(=O)c1ccc(NP(C)(=O)Oc2ccc(Cl)cc2)cc1 (centres undefined) | inactive: -8.03% |
| CP(=O)(OC12CC3CC(CC(C3)C1)C2)OC12CC3CC(CC(C3)C1)C2 | inactive: -0.323% |
| CCN(CC)CC(O)COC(=O)C(O)(c1ccccc1)C1CCCCC1 (centres undefined) | inactive: 0.0695% |
| COc1ccc(OP(C)(=O)Nc2ccc(Br)cc2)cc1 (centres undefined) | inactive: -6.23% |
| COc1ccccc1OP(C)(=O)Nc1c(C)n(C)n(-c2ccccc2)c1=O (centres undefined) | inactive: 3.56% |
| O=C(OCCCN1CCCC1)C(O)(c1ccccc1)C1CCCCC1 (centres undefined) | inactive: 3.24% |
| CP(=O)(Oc1ccccc1)N1CCOC1=O (centres undefined) | inactive: -2.49% |
| CCc1ccc(OP(C)(=O)Nc2cccnc2)cc1 (centres undefined) | inactive: -0.811% |

| Structure (SMILES) | activation |
| --- | --- |
| COc1ccccc1OP(C)(=O)Nc1ccccc1Br (centres undefined) | inactive: -19% |
| CC(C)(C)c1ccc(OP(C)(=O)O)cc1 | inactive: 3.35% |
| CP(=O)(Nc1ccc(Cl)cc1)Oc1ccc(F)cc1 (centres undefined) | inactive: 5.31% |
| CN(C)C(=O)c1c([N+](=O)[O-])cc([N+](=O)[O-])cc1[N+](=O)[O-] | inactive: -3.17% |
| CP(=O)(Nc1ccc(SC(F)(F)F)cc1)Oc1ccc(F)cc1 (centres undefined) | inactive: 2.78% |
| CCOP(C)(=S)SCC(=O)NC(C)(CC)C(=O)O (centres undefined) | inactive: 5.61% |
| CP(=O)(Nc1ccc2c(c1)OCCO2)Oc1ccccc1 (centres undefined) | inactive: 13.1% |
| Cc1ccccc1NP(C)(=O)Nc1ccccc1C | inactive: 0.253% |
| O=[N+]([O-])c1cc([N+](=O)[O-])c(C(F)(F)F)c([N+](=O)[O-])c1O | inactive: -3.86% |
| COc1ccc(OP(C)(=O)Nc2cccc(Br)c2)cc1 (centres undefined) | inactive: 6.27% |
| CN(C)CCOC(=O)C(O)(c1ccccc1)C1CCCCC1 (centres undefined) | inactive: 8.2% |
| COc1ccc(NP(C)(=O)Oc2ccccc2OC)cc1 (centres undefined) | inactive: -6.64% |
| O=[N+]([O-])c1ccc(OP2(=O)COCCO2)cc1 (centres undefined) | inactive: 16% |
| Cc1cc(-c2cccc3ccccc23)c(C)cn1.O=[N+]([O-])c1cc([N+](=O)[O-])c(O)c([N+](=O)[O-])c1 | inactive: -0.365% |
| Cc1c(C(c2ccc3c(c2)OCO3)c2c(C)n(C)n(-c3ccccc3)c2=O)c(=O)n(-c2ccccc2)n1C.O=[N+]([O-])c1cc([N+](=O)[O-])c(O)c([N+](=O)[O-])c1 | inactive: 2.79% |
| CCOC(=O)c1ccc(NP(C)(=O)Oc2ccc(F)cc2)cc1 (centres undefined) | inactive: -3.28% |
| COc1ccc(OP(C)(=O)Nc2ccc(SC(F)(F)F)cc2)cc1 (centres undefined) | inactive: -8.58% |
| Cc1c([N+](=O)[O-])cc([N+](=O)[O-])c(Br)c1[N+](=O)[O-] | inactive: -6.82% |
| CCN(CC)CCCOC(=O)C(O)(c1ccccc1)C1CCCCC1 (centres undefined) | inactive: 3.89% |
| CP(=O)(Nc1ccccc1)Oc1ccc(F)cc1 (centres undefined) | inactive: -6.56% |
| CCCCCOc1ccc(NP(C)(=O)Oc2ccc(Cl)cc2Cl)cc1 (centres undefined) | inactive: -15.8% |
| CP(=O)(Nc1ccccc1F)Oc1ccccc1 (centres undefined) | inactive: 6.7% |
| CC(C)c1ccc(OP(C)(=O)Nc2ccc(SC(F)(F)F)cc2)cc1 (centres undefined) | inactive: -26.5% |

| Structure (SMILES) | activation |
| --- | --- |
| O=C(OCCN1CCN(CCOCc2ccccc2)CC1)C(O)(c1ccccc1)c1ccccc1 | inactive: 11.1% |
| COc1ccccc1OP(C)(=O)Nc1cccc(Br)c1 (centres undefined) | inactive: -1.39% |
| CCOC(=O)c1ccc(NP(C)(=O)Oc2cc(C)cc(C)c2)cc1 (centres undefined) | inactive: -2.34% |
| Cc1cc(C)cc(OP(C)(=O)Nc2ccc(C)cc2C)c1 (centres undefined) | inactive: -1.97% |
| Cc1ccc(C)c(NP(C)(=O)Oc2ccccc2)c1 (centres undefined) | inactive: 4.34% |
| Cc1cc(C)cc(OP(C)(=O)Nc2ccccn2)c1 (centres undefined) | inactive: 6.65% |
| CP(=O)(Nc1cccc(Br)c1)Oc1ccccc1 (centres undefined) | inactive: -0.301% |
| CC1=NCCc2c1[nH]c1ccccc21.O=[N+]([O-])c1cc([N+](=O)[O-])c(O)c([N+](=O)[O-])c1 | inactive: 13.5% |
| CC1=C2N=C(C=C3N=C(C(C)=C4[N-][C@@](C)([C@@H]5N=C1[C@](C)(CCC(=O)NC[C@@H](C)OP(=O)([O-])O[C@H]1[C@@H](O)[C@@H](n6cnc7cc(C)c(C)cc76)O[C@@H]1CO)[C@H]5CC(N)=O)[C@@](C)(CC(N)=O)[C@@H]4CCC(N)=O)[C@@](C)(CC(N)=O)[C@@H]3CCC(N)=O)C(C)(C)[C@@H]2CCC(N)=O.[C-]#N.[Co+3] | inactive: 11.4% |
| O=[N+]([O-])c1cc([N+](=O)[O-])c(Nc2nnnn2CCO)c([N+](=O)[O-])c1 | inactive: 5.22% |
| COc1ccccc1OP(C)(=O)Nc1c(C)cccc1C (centres undefined) | inactive: 1.18% |
| COc1ccc(-c2ccccn2)cc1.O=[N+]([O-])c1cc([N+](=O)[O-])c(O)c([N+](=O)[O-])c1 | inactive: 2.07% |
| CCCOc1ccc(NP(C)(=O)Oc2ccc(Cl)cc2)cc1 (centres undefined) | inactive: 2.78% |
| CP(=O)(Nc1ccc(SC(F)(F)F)cc1)Oc1ccccc1 (centres undefined) | inactive: -9.26% |
| O=[N+]([O-])c1cc([N+](=O)[O-])c(-n2nnc3ccccc32)c([N+](=O)[O-])c1 | inactive: 3.49% |
| CN(Cc1cccnc1)C(=O)COc1ccc(Cl)c(Cl)c1.O=[N+]([O-])c1cc([N+](=O)[O-])c(O)c([N+](=O)[O-])c1 | inactive: 5.39% |
| O=[N+]([O-])c1cc([N+](=O)[O-])c(-c2cnn(-c3ccccc3)c2)c([N+](=O)[O-])c1 | inactive: 12.1% |
| Cc1nc2ccc3ccccc3c2s1.O=[N+]([O-])c1cc([N+](=O)[O-])c(O)c([N+](=O)[O-])c1 | inactive: -2.64% |
| Cc1cccc(C)c1OP(C)(=O)Nc1ccc(SC(F)(F)F)cc1 (centres undefined) | inactive: 9.67% |
| CP(=O)(Nc1ccc(SC(F)(F)F)cc1)Oc1ccc(Cl)cc1 (centres undefined) | inactive: 7.32% |
| CP(=O)(Oc1ccccc1)OC(c1ccccc1)C(F)(F)F (centres undefined) | inactive: -5.97% |
| CP(=O)(NC(=O)Nc1ccccc1)Oc1ccccc1 (centres undefined) | inactive: 7.58% |
| CCc1ccc(OP(C)(=O)N2CCN(c3ccc([N+](=O)[O-])cc3)CC2)cc1 (centres undefined) | inactive: 9.71% |

| Structure (SMILES) | activation |
| --- | --- |
| Cc1cc(C)cc(OP(C)(=O)Nc2ccc(SC(F)(F)F)cc2)c1 (centres undefined) | inactive: -3.22% |
| CCOC(=O)c1ccc(NP(C)(=O)Oc2ccc(OC)cc2)cc1 (centres undefined) | inactive: -1.82% |
| O=[N+]([O-])c1cc([N+](=O)[O-])c(O)c([N+](=O)[O-])c1.c1ccc(Oc2ccncc2)cc1 | inactive: 14.8% |
| CCOP(C)(=S)SCC(=O)NC(C)C(=O)O (centres undefined) | inactive: -0.782% |
| CP(=O)(Nc1ccccn1)Oc1ccc(Cl)cc1 (centres undefined) | inactive: 6.89% |
| CP(=S)(Nn1cnnc1)Oc1ccccc1 (centres undefined) | inactive: 8.61% |
| CP(=O)(Nc1ccccc1Br)Oc1ccccc1 (centres undefined) | inactive: 11.2% |
| COc1ccccc1OP(C)(=O)Nc1ccccc1 (centres undefined) | inactive: -6.14% |
| O=[N+]([O-])c1cc([N+](=O)[O-])c(Nc2cccnc2)c([N+](=O)[O-])c1 | inactive: 3.28% |
| O=[N+]([O-])c1ccc2c(c1)C=Nc1ccccc1O2 | inactive: 8.71% |
| CC(C)(C)c1ccc(OP(C)(=O)Nc2ccc(SC(F)(F)F)cc2)cc1 (centres undefined) | inactive: -17% |
| Cc1cccc(C)c1OP(C)(N)=O (centres undefined) | inactive: -1.14% |
| COc1ccccc1OP(C)(=O)Nc1ccc(C)cc1 (centres undefined) | inactive: 10.7% |
| Cc1ccc(NP(C)(=O)Oc2ccccc2)c(C)c1 (centres undefined) | inactive: 1.85% |
| CCOC(=O)c1ccc(NP(C)(=O)Oc2ccccc2)cc1 (centres undefined) | inactive: 3.92% |
| Cc1cc(C)cc(OP(C)(N)=O)c1 (centres undefined) | inactive: 1.33% |
| COc1ccccc1OP(C)(=O)Nc1cc(Cl)ccc1C (centres undefined) | inactive: -0.849% |
| COc1ccc(OP(C)(=O)Nc2cccc(F)c2)cc1 (centres undefined) | inactive: -1.54% |
| CCN(CC)CCCOC(=O)C(O)(c1ccccc1)c1ccccc1 | inactive: 10.5% |
| COc1ccccc1-c1ccccn1.O=[N+]([O-])c1cc([N+](=O)[O-])c(O)c([N+](=O)[O-])c1 | inactive: 3.71% |

From PubChem BioAssay AID720711 (National Center for Advancing Translational Sciences (NCATS), 2013)
